From patent publication EP4471048A1, “PEPTIDE INHIBITORS OF INTERLEUKIN-23 RECEPTOR” (Zealand Pharma A/S, priority 2023, dated 2024)

Assay: in vitro
Settings: pig, pH 6.8

A remaining at 1 h, 10 µM of 47% and a remaining at 4 h, 10 µM of 22% were found for `CC(=O)N[C@H](CCCNC(=N)N)C(=O)N[C@H]1CCSC[C@@H](C(=O)N[C@@H](Cc2ccc(OCCN)cc2)C(=O)N[C@@H](Cc2ccc3ccccc3c2)C(=O)NC2(C(=O)N[C@@H](CCC(=O)O)C(=O)N[C@@H](CC(N)=O)C(=O)N[C@@H](CC(N)=O)C(N)=O)CCOCC2)NC(=O)[C@H](CCC(N)=O)NC(=O)[C@H](Cc2c[nH]c3ccccc23)NC(=O)[C@H]([C@@H](C)O)NC(=O)[C@H](CCC(N)=O)NC1=O` [Peptide 993, [Ac]-[{d}R][Abu](16i)QTWQC(16i)[Y(2-aminoethoxy)][2-Nal][4-Aminotetrahydro-2H-pyran-4-carbonyl]ENN-[NH2], reference compound] in this work.
